System: Trauma and 27 ml/kg hemorrhagic shock
Assay: Second albumin study: trauma and 27 ml/kg hemorrhagic shock model, albumin bolus then crystalloid as needed
Format: in vivo
Conditions: FIG. 2 and FIG. 3
Method: Two studies of resuscitation by albumin after hemorrhage were performed. In the first study, resuscitation by a crystalloid (control) was compared to resuscitation with either a bolus of bovine serum albumin (BSA) saturated with oleic acid (OA-BSA) or a bolus of NEFA-free albumin, followed by crystalloid, as needed. As commercially available pharmaceutical grade albumin is human albumin (HSA) that is nearly saturated with caprylic acid, instead of oleic acid, in the second study OA-BSA, caprylic acid-saturated BSA (CA-BSA), and pharmaceutical grade human serum albumin (HSA) were compared. A crystalloid-only group (“Crystalloid Only Group”) was also run as a control. Note that HSA is usually 1.2% caprylic acid by weight of albumin plus an additional approximate 0.14% by weight of albumin of assorted NEFAs originating from the donor, for a total of approximately 1.34% NEFA by weight of albumin. […]
The facility's Institutional Animal Care and Use Committee (IACUC) approved all research conducted in this study. […] Core temperature was maintained (36-37° C.) using a heating pad and monitored with a rectal probe (Physitemp, Clifton, NJ). […]

## HSA: pharmaceutical grade human serum albumin, 25% HSA from Grifols, nearly saturated with caprylic acid
  loss of protein from the circulation (plasma/total protein T2 to T4): significant drop

Source: US20250367268A1, “Compositions and Methods for Treating Internal Bleeding and Hemorrhage” (priority 2024, published 2025)
